High-throughput results from PubChem BioAssay.
Rows were chosen to be rich in hits. Some 1.3% of all compounds tested hit in one or more screens of this group.
Yeast UUG start = alters start codon recognition fidelity in yeast; AID 602363; activity score, % at 18.7 µM; 350,000 tested, 0.13% active; S. cerevisiae UUG-firefly luciferase reporter, luminescence/redox ratio;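 active means replicate mean at a twofold rise or more, about +100% in these data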;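 further: firefly luciferase made from a UUG start codon reports start codon fidelity; reporter light over untreated wells divided by growth signal over untreated wells; some hits fall short of that in this replicate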
S100A4 MyoIIA = inhibitors of S100A4-myosin IIA peptide binding, primary screen, biochemical, fluorescence polarization, TAMRA-MyoIIA peptide | Protein S100-A4 (Homo sapiens), P26447 | inhibition, % at 10.7 µM | hit rate 0.14% among 360,000 | AID 652163, 2013;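 active = mean inhibition of at least 70% across replicates, with every replicate also reaching that level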
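Test system – S100A4 monomer (human) · Compound – single-point compound testing · Schedule – 5 min incubation before reading · Probe or stimulus – TAMRA-labelled myosin IIA heavy-chain peptide probe, 5 nM · Benchmarks – neutral control DMSO, positive control TFP · Medium – Calcium-containing HEPES buffer, pH 7.2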
ERAP1 HTS inh = human ERAP1 aminopeptidase inhibitors, primary screen, biochemical, single point, plate reader; hit rate 0.15% among 340,000; recombinant ERAP1, Leu-AMC fluorescence, 60 min; Endoplasmic reticulum aminopeptidase 1 (Homo sapiens), Q9NZ08; inhibition, % at 10.7 µM; AID 652197, 2013;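 active = mean replicate inhibition of at least 30%, or all replicates individually reaching that 30% level; inactive = mean below 30% and not every replicate reaching it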;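 also: 0% = neutral control wells and 100% = L-leucinethiol positive control wells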
AF4-AF9 inh = inhibitors of AF4 peptide binding to AF9, primary screen, biochemical, AlphaScreen, biotin-AF4 peptide, FLAG-AF9, single point; Protein AF-9 (Homo sapiens), P42568; inhibition, % at 10 µM; hit rate 0.47% among 350,000;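 active = every replicate reaching a set inhibition limit, whatever the replicate mean, cut at about 25% in these data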;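 also: 0% = plate neutral control median and 100% = total signal loss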
ARNT-TACC3 inh = disruptors of ARNT/TACC3 protein interaction, primary screen, biochemical, AlphaScreen, single concentration | Transforming acidic coiled-coil-containing protein 3 (Homo sapiens), Q9Y6A5 | AlphaScreen His-ARNT PAS-B/GST-TACC3 binding, luminescence; TACC3 fragment carries E629A point mutation | inhibition, % at 9.99 µM | hit rate 0.66% among 390,000 | AID 623870, 2012;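 active = mean inhibition of replicates at least 50% and at least half of replicates each reaching 50%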;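 also: 0% = complete ARNT plus TACC3 wells and 100% = ARNT alone without TACC3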
E-sel inducer = E-selectin induction in HUVECs, primary screen, imaging, HUVEC, immunofluorescence imaging, single point | activation, % at 7.58 µM | hit rate 0.37% among 260,000 | AID 686992, 2013 | normalized: neutral wells 0, TNF-alpha wells 100;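 active = mean E-selectin-positive cell signal at least 10% of the positive control, reached in at least 60% of replicates, without over 20% cell loss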
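assay system = HUVEC, human umbilical vein endothelial cells | input = 3,000 HUVEC seeded per well | medium = EGM-2 growth medium on 0.1% gelatin-coated wells | dosing = one compound dose added by pin transfer | signal = immunofluorescence imaging | read-out basis = % PE-positive cells | control set = TNF-alpha, DMSO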
Numbers without * were called inactive; nt = no result given.

Protein sequences, listed by entry. Tags and fused reporters are not part of them.
Protein AF-9 (Homo sapiens), P42568, UniProt P42568, whole entry, looked up: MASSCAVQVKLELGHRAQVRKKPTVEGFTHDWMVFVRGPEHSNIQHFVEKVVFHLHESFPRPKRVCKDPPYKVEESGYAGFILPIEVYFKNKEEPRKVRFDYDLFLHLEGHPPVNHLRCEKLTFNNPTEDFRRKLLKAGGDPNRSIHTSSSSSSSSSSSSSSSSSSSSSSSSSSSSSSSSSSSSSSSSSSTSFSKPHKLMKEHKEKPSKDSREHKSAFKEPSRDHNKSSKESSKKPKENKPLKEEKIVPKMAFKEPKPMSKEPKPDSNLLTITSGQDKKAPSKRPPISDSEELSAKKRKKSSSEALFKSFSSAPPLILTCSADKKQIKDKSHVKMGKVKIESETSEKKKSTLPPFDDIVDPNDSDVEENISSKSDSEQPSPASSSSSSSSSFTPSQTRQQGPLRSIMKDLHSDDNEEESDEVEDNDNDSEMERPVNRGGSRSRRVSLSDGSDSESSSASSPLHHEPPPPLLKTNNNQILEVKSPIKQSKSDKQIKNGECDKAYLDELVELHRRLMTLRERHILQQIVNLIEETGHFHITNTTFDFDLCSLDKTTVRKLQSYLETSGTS

Start of the listing, in advance (2 entries):
SMILES | Yeast UUG start | S100A4 MyoIIA | ERAP1 HTS inh | AF4-AF9 inh | ARNT-TACC3 inh | E-sel inducer
COc1ccc(S(=O)(=O)Nc2ccc3c(c2)C(=O)N([C@H](C)CO)C[C@@H](C)[C@@H](CN(C)Cc2ccc4c(c2)OCO4)O3)cc1 | 7 | -15 | -1 | 2 | -6 | 0
C[C@H]1CN([C@@H](C)CO)C(=O)c2cc(C3=CCCCC3)cnc2O[C@@H]1CN(C)CC1CCCC1 | -7 | 3 | 0 | -2 | -1 | 0

Main list, repeating the preview:
SMILES | Yeast UUG start | S100A4 MyoIIA | ERAP1 HTS inh | AF4-AF9 inh | ARNT-TACC3 inh | E-sel inducer
COc1ccc(S(=O)(=O)Nc2ccc3c(c2)C(=O)N([C@H](C)CO)C[C@@H](C)[C@@H](CN(C)Cc2ccc4c(c2)OCO4)O3)cc1 | 7 | -15 | -1 | 2 | -6 | 0
C[C@H]1CN([C@@H](C)CO)C(=O)c2cc(C3=CCCCC3)cnc2O[C@@H]1CN(C)CC1CCCC1 | -7 | 3 | 0 | -2 | -1 | 0
CCNc1nc(NCC)nc(N(C)N)n1 | -17 | nt | nt | nt | 70* | nt
CC(C)Nc1nc(NC(C)C)nc(N(C)N)n1 | nt | nt | nt | nt | 59* | nt
CC(C)Nc1nc(NC(C)C)nc(N(C)C(N)=O)n1 | 4 | nt | nt | nt | -4 | nt
Cc1cccc(NCC(=O)NNC(=S)Nc2ccccc2)c1 | nt | -2 | 1 | -8 | 47* | 0
O=C(Nc1nc(-c2ccccc2)c(-c2ccccc2)o1)c1ccc(F)cc1 | -15 | nt | nt | nt | 46* | -2
COc1cccc(C(=O)Nc2nc(-c3ccccc3)c(-c3ccccc3)o2)c1 | nt | -1 | 0 | 3 | 5 | nt
C[C@H](CO)N1C[C@H](C)[C@H](CN(C)S(=O)(=O)c2ccccc2)Oc2c(NC(=O)c3ccncc3)cccc2C1=O | -12 | 9 | -4 | -3 | -7 | -6
COc1ccccc1N(CC(=O)NCCSc1ccccn1)S(=O)(=O)c1ccccc1 | -6 | 5 | 9 | 1 | -1 | 37*
Cc1cccn2c(=O)c(/C=N/O)c(Nc3ccccc3F)nc12 | nt | 2 | nt | 0 | -5 | 59*
CCCN1C[C@@H](C)[C@H](OC)CN(C)C(=O)c2ccc(NC(=O)Nc3c(C)noc3C)cc2OC[C@H]1C | 7 | -17 | nt | nt | -4 | 0
COc1ccc(S(=O)(=O)Nc2cccc3ccc(O)cc23)cc1 | -6 | 16 | nt | 3 | -5 | nt
O=C(O)CSc1cc(NS(=O)(=O)c2ccc(Cl)cc2)c2ccccc2c1O | -36 | 0 | 8 | -7 | 48* | 1
O=S(=O)(Nc1cc(Sc2cccc3cccnc23)c(O)c2ccccc12)c1ccc(F)cc1 | nt | 0 | -2 | 13 | nt | -2
COc1ccc(S(=O)(=O)Nc2cc(SCC(=O)O)c(O)c3ccccc23)cc1 | -21 | -1 | -3 | 3 | 61* | 0
Cc1cc(/C(N)=N/OC(=O)Nc2cccc(C(F)(F)F)c2)no1 | -4 | -4 | nt | -3 | -1 | 67*
Cc1noc(C)c1S(=O)(=O)Nc1ccc2c(c1)C(=O)N([C@H](C)CO)C[C@@H](C)[C@@H](CN(C)C(=O)Nc1ccc(C(F)(F)F)cc1)OCCCC[C@@H](C)O2 | -11 | 9 | 1 | -3 | 19 | 0
CC1=CC2(C#N)C3(N=C(N)C2(C#N)C(c2ccccc2)N1)OCCO3 (stereo not drawn) | -11 | nt | nt | nt | -4 | nt
CCCCSC1(SCCCC)N=C(N)C2(C#N)C(c3ccccc3)NC(C)=CC12C#N (stereo not drawn) | 3 | nt | nt | nt | 56* | nt
CC(=O)NC1C(=O)N(CCN2CCOCC2)c2ccc(C)cc21 (stereo not drawn) | nt | nt | nt | nt | -40 | nt
CC(=O)NC1C(=O)N(CCN2CCOCC2)c2ccc(F)cc21 (stereo not drawn) | nt | -4 | 16 | 15 | -39 | 53*
COc1ccc(NC(=O)c2cc([N+](=O)[O-])ccc2NC(=O)CNCc2ccccn2)c(OC)c1 | -33 | -15 | 2 | 6 | 46* | nt
COc1cc(NC(=O)c2cc([N+](=O)[O-])ccc2NC(=O)CNCc2ccccn2)cc(OC)c1 | -32 | -1 | 2 | 5 | 38* | nt
O=c1[nH]c(=S)[nH]c2nc(-c3ccccc3)cnc12 | nt | 0 | 16 | -2 | 1 | nt
Cc1cc2nc3c(=O)[nH]c(=S)[nH]c3nc2cc1NC(=O)C(F)(F)F | -16 | 14 | 1 | -8 | 70* | nt
c1ccc(CN2CCC(=NNc3nc4ccccc4[nH]3)CC2)cc1 | -23 | -1 | -2 | 34* | 39 | nt
CC(C)(C)C1CCC(=NNc2nc3ccccc3[nH]2)CC1 (stereo not drawn) | nt | 0 | 2 | 10 | 20 | 0
COc1ccc(S(=O)(=O)N(C)C[C@@H]2Oc3ccc(NS(=O)(=O)c4ccccc4)cc3C(=O)N([C@H](C)CO)C[C@@H]2C)cc1 | -7 | nt | nt | nt | 12 | 0
Cc1noc(C)c1S(=O)(=O)N(C)C[C@@H]1OCCCC[C@H](C)Oc2ccc(NC(=O)C3CCCCC3)cc2C(=O)N([C@H](C)CO)C[C@H]1C | 4 | 111* | -2 | 6 | -6 | 0
CNC[C@H]1OCCCC[C@H](C)Oc2ccc(NC(=O)C3CCCCC3)cc2C(=O)N([C@@H](C)CO)C[C@@H]1C | 8 | -17 | 0 | 1 | 3 | 0
CNC[C@@H]1Oc2ccc(NS(C)(=O)=O)cc2C(=O)N([C@@H](C)CO)C[C@H]1C | -31 | 5 | 1 | -6 | nt | 9
CNC[C@@H]1Oc2ccc(NS(C)(=O)=O)cc2C(=O)N([C@@H](C)CO)C[C@@H]1C | nt | nt | nt | nt | nt | 33*
CNC[C@@H]1OCCCC[C@H](C)Oc2ccc(NS(C)(=O)=O)cc2C(=O)N([C@@H](C)CO)C[C@@H]1C | 19 | 89* | 4 | -8 | -7 | 0
CNC[C@H]1OCCCC[C@@H](C)Oc2ccc(NC(=O)C3CCCCC3)cc2C(=O)N([C@@H](C)CO)C[C@@H]1C | 20 | 97* | 2 | -5 | -2 | 0
CCCNC(=O)N1CC2(CN(Cc3ccccn3)C2)c2c(n(C)c3cc(OC)ccc23)[C@H]1CO | nt | nt | nt | 11 | nt | 0
COc1ccc(CN2C[C@H](O)COC[C@@H]3O[C@H](CC(=O)N(C)C)CC[C@H]32)cc1 | nt | -1 | -1 | -1 | -1 | 0
COc1ccc(CN2C[C@H](O)COC[C@@H]3O[C@@H](CC(=O)N(C)C)CC[C@H]32)cc1 | nt | 94* | -1 | -3 | 6 | 0
COCCNC(=O)C[C@@H]1CC[C@H]2[C@@H](COC[C@H](O)CN2Cc2cccc(-c3ccncc3)c2)O1 | nt | 90* | -4 | -10 | -4 | 0
C[C@@H]1CCCCO[C@H](CN(C)C(=O)NC2CCCCC2)[C@H](C)CN([C@H](C)CO)C(=O)c2cc(NC(=O)NC3CCCCC3)ccc2O1 | 15 | 3 | 2 | -2 | -2 | 0
CCCN1CCC(=O)N([C@H](CN=[N+]=[N-])Cc2ccccc2)CC1 | -15 | 3 | -5 | 43* | -1 | 0
CN1CCC(=O)N([C@H](CN=[N+]=[N-])Cc2ccccc2)CC1 | -9 | -1 | 0 | 43* | 1 | 0

Whole records as entered above. Screens in order: Yeast UUG start, S100A4 MyoIIA, ERAP1 HTS inh, AF4-AF9 inh, ARNT-TACC3 inh, E-sel inducer
Profile of CCCN1C[C@@H](C)[C@H](OC)CN(C)C(=O)c2ccc(NC(=O)Nc3c(C)noc3C)cc2OC[C@H]1C : 7, -17, nt, nt, -4, 0
Profile of c1ccc(CN2CCC(=NNc3nc4ccccc4[nH]3)CC2)cc1 : -23, -1, -2, 34*, 39, nt
Profile of Cc1cccn2c(=O)c(/C=N/O)c(Nc3ccccc3F)nc12 : nt, 2, nt, 0, -5, 59*
